Reference: patent publication US6545045B1, “Prostaglandin E agonists for treatment of glaucoma” (Alcon Manufacturing, Ltd., priority 1998, dated 2003)

Protein sequences, listed by entry. Tags and fused reporters are not part of them. Residues count along the entry.
UniProt P43116, whole entry: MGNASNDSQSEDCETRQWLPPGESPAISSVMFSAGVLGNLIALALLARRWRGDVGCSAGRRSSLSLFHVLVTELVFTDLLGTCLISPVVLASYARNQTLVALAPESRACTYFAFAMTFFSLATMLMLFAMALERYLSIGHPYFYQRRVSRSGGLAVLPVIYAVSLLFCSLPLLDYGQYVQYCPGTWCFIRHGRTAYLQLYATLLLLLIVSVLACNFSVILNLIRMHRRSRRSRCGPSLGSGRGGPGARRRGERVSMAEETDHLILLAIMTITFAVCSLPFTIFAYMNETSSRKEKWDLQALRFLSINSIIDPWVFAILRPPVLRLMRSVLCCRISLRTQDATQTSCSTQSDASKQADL
UniProt A0A061ILF4, 1-488: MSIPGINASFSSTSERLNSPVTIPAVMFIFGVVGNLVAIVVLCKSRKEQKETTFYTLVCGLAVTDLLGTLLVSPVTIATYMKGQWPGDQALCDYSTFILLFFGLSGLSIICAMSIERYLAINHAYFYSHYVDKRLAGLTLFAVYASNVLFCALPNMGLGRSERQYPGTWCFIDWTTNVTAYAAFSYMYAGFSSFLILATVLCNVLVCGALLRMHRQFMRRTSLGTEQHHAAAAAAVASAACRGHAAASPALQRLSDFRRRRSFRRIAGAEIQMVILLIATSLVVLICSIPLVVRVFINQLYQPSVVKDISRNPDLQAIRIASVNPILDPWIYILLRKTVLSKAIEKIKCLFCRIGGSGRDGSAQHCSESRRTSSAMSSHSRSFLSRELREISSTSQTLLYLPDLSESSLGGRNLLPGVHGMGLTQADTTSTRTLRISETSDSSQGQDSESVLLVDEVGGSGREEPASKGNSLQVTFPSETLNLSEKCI

Assays:
[1] = molecular target: EP2 receptors (Homo sapiens, UniProt P43116); assay: cAMP production (radioimmunoassay) via EP2 receptors in immortalized human non-pigmented ciliary epithelial cells
[2] = molecular target: EP4 receptors (Cricetulus griseus, UniProt A0A061ILF4); assay: cAMP production (radioimmunoassay) via EP4 receptors in Chinese hamster ovary cells; settings: read-out: Potency (EC50, nM) at EP4 Receptors in Chinese Hamster Ovary Cells, stimulated 15-60 min at 23° C

- EC50 [2]: > 10000 nM
SMILES: O=C(O)COC/C=C\C[C@@H]1[C@@H](/C=C/[C@@H](O)C2CCCCC2)[C@H](O)C[C@H]1Cl
- selectivity between EP2 and EP4 receptors (relative agonist potency) ([1]; EP2 versus EP4, from EC50 values of Table 1): more EP2-selective
- EC50 ([1]; read-out: Potency (EC50, nM) at EP2 Receptors in Immortalized Human Non-pigmented Ciliary Epithelial Cells, cAMP production, stimulated 15-60 min at 23° C): 700 nM
